In the test the target is rat collagenase-3 receptor (170 kDa protein) of UMR 106-01 rat osteosarcoma cells and other rat cells (rat). The experiment in a line: ^125I-labeled ligand at 8 nM on UMR cells, triplicate wells.

In the case of “human collagenase-3 (human MMP-13) (from UniProt P45452 20-471) (enzyme)”, the Specific binding (fmol/2.6 × 10^5 cells) was 35.3.

For the origin of these results see patent US6403637.
